Test results: patent publication EP2351737A1, “3-Amino-1-arylpropyl indoles and aza-substituted indoles” (F. Hoffmann-La Roche AG, priority 2005, dated 2007)

Protein sequences, listed by entry. Tags and fused reporters are not part of them. Lines headed by an entry give the natural chain unless they say otherwise; changes in a name come on top.
UniProt P31645: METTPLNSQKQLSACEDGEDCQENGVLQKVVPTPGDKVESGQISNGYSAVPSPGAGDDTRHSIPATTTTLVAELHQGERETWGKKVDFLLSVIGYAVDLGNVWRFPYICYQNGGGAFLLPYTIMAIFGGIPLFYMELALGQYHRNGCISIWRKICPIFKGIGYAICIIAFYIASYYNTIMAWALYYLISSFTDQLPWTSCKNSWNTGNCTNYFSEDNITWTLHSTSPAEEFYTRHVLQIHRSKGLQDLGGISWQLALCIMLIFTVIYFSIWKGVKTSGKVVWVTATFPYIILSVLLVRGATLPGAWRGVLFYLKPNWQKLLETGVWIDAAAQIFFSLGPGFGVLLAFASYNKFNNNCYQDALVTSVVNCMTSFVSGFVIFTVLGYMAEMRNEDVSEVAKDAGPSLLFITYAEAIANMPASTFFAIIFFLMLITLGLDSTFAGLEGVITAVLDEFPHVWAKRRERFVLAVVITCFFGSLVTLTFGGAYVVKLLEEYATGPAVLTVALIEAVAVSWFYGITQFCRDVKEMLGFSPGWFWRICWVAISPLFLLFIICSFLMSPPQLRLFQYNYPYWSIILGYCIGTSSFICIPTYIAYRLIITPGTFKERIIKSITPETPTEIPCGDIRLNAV
UniProt P23975: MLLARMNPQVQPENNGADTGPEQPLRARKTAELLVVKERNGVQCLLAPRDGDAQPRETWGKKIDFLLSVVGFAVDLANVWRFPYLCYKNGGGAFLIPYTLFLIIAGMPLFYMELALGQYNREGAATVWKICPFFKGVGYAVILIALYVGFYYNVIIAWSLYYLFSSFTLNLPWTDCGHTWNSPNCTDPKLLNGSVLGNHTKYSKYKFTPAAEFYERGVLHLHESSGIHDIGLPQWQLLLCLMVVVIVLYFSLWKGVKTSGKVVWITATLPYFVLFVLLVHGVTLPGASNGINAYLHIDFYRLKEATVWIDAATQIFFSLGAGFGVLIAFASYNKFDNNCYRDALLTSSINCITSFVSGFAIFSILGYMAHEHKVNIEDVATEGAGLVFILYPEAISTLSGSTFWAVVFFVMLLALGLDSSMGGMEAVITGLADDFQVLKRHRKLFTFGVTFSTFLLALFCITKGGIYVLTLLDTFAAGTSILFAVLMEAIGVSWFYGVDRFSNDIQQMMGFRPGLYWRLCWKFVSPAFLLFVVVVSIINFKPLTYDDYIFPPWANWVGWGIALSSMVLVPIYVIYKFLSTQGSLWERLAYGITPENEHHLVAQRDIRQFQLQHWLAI

How the values were obtained:
[1] = target: Human Serotonin Transporter (hSERT) (Homo sapiens, UniProt P31645); experiment: Human Serotonin Transporter (hSERT) Scintillation Proximity Assay (SPA), competition with [3H]-Citalopram; format: binding; settings: membranes of HEK-293 cells expressing recombinant hSERT, Ki by Cheng-Prusoff
[2] = target: Human Norepinephrine Transporter (hNET) (Homo sapiens, UniProt P23975); experiment: Human Norepinephrine Transporter (hNET) Scintillation Proximity Assay (SPA), competition with [3H]-Nisoxetine

In the case of “[3-(7-Chloro-1H-indol-5-yl)-3-phenyl-propyl]-methyl-amine”, the “pKi SERT” value [1] is reported as 7.89, the “pKi NET” value ([2]; competition with [3H]-Nisoxetine, membranes of HEK-293 cells expressing recombinant hNET, Ki by Cheng-Prusoff) is reported as 8.84 and the IC50 ([2]; hNET SPA, [3H]-Nisoxetine) is reported as “approximately 9.0”.
